Experimental data as given in PubChem BioAssay AID624287 (National Center for Advancing Translational Sciences (NCATS), 2012).
About 420 (0.12%) of roughly 340,000 compounds were called active. The source calls these results inconclusive, neither active nor inactive. The call rests on the fitted dose curve; in most records, active means well fitted activation curve with a large enough effect; inconclusive means small, poorly fitted or top-dose-only effect, or another doubt; inactive means no such curve, though single readings can be large or run the other way; cell line not stated here.

assay: qHTS for Agonist of gsp, the Etiologic Mutation Responsible for Fibrous Dysplasia/McCune-Albright Syndrome: qHTS; settings: gsp mutant cells, cAMP HTRF, 30 min; activation (cAMP increase): at 76.9 µM (top of the series); further: nearly all actives have a fitted effect of over 60% in size;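 on activation (cAMP increase): phosphodiesterase inhibitor Ro 20-1724 added with compounds to block cAMP breakdown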
Potency means the concentration at half of the fitted maximal effect.

SMILES | Potency | activation (cAMP increase)
O=P1(N(CCCl)CCCl)OCCC2CCCCN21 (configuration not stated) | inconclusive: 3.55 µM | 
O=[N+]([O-])c1ncn(CCn2cnc([N+](=O)[O-])n2)n1 | inconclusive: 35.5 µM | 
COC(=O)C1(C)COP(=O)(Nc2ccccc2)OC1 (configuration not stated) | inconclusive: 50.1 µM | 
CC1CCN(C(=O)Oc2c(Cl)cc(Cl)c3cccnc23)CC1 | inconclusive: 11.2 µM | 
CC(C)c1ccc(OP(=O)(Nc2ccccn2)Oc2ccccc2F)cc1 (configuration not stated) | inconclusive: 5.62 µM | 
O=C(Nc1ccncc1[N+](=O)[O-])c1ccc([N+](=O)[O-])cc1[N+](=O)[O-] | inconclusive: 6.31 µM | 
O=C(O)C(=O)c1ccc(N(CCCl)CCCl)cc1 | inconclusive: 12.6 µM | 
O=[As](O)(c1cccs1)c1cccs1 | inconclusive: 4.47 µM | 
CS(=O)(=O)c1ccc(Cl)c(NC(=O)COC(=O)C(O)(c2ccccc2)c2ccccc2)c1 |  | inconclusive: -117%
O=[As](O)(O)c1cccnc1 | inconclusive: 2.24 µM | 
Nc1cccc2c([As](=O)(O)O)cccc12 | inconclusive: 50.1 µM | 
O=P(Nc1nccs1)(c1ccccc1)c1nc2ccccc2s1 (configuration not stated) | inconclusive: 7.08 µM | 
